Reference: patent US4174402A, “Method for the prophylaxis of SRS-A-induced symptoms” (priority 1978, dated 1979)

Tested on: histamine
Experiment: Test Procedure 5: histamine-induced bronchoconstriction in anesthetized guinea pigs
Assay type: in vivo, guinea pig
Method: Guinea pigs weighing 350 to 400 g were anesthetized ip with 1.5 g/kg urethane and prepared for measurements of resistance to pulmonary inflation using a slightly modified Konzett-Rossler method (see Test Procedure 2). […] The experimental procedure was started after each guinea pig had attained its maximal, repeatable response to histamine. […] Artificial respiration was resumed 25 minutes later. Thirty minutes after the administration of one of the drugs, tne guinea pigs received two of three injections of histamine at 3-minute intervals. The average of these histamine responses (increases in resistance) was expressed as percent of the maximal histamine response obtained with the same guinea pig before the administration of the drug. In addition to sc administration, compound b was also studied following po administration. In these studies, the time interval between po medication and the secondary histamine challenges was increased to 45 minutes.

CN(C)CCOC(c1ccccc1)c1ccccc1 [Diphenhydramine, diphenhydramine, reference compound]
% Inhibition (sc 0.10 mg/kg): 6% | Histamine-Response in % of Premed. Histamine Response (sc 0.10 mg/kg): 94 ± 10% | % Inhibition (sc 0.33 mg/kg): 49% | Histamine-Response in % of Premed. Histamine Response (sc 0.33 mg/kg): 51 ± 17% | % Inhibition (sc 1.00 mg/kg): 76% | Histamine-Response in % of Premed. Histamine Response (sc 1.00 mg/kg): 24 ± 6% | inhibition of histamine responses (sc, doses up to 1.0 mg (base)/kg): dose-related inhibition
